According to PubChem BioAssay AID2599 (Sanford-Burnham Center for Chemical Genomics, 2010):
The entries are a selection whose mix differs from that of the whole data set. Some salts and complexes are drawn in separate pieces, as the source files them; their charges need not balance. The source made the active and inactive calls.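 The calls were made as follows: active = inhibition above about 50% at the single tested dose (limit read from the data); inactive = the rest.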

Sequences of proteins named here, by UniProt entry; tags and fusion partners are left off. Residues count along the entry.
UniProt Q9GZR1, 628-1112 limits assumed: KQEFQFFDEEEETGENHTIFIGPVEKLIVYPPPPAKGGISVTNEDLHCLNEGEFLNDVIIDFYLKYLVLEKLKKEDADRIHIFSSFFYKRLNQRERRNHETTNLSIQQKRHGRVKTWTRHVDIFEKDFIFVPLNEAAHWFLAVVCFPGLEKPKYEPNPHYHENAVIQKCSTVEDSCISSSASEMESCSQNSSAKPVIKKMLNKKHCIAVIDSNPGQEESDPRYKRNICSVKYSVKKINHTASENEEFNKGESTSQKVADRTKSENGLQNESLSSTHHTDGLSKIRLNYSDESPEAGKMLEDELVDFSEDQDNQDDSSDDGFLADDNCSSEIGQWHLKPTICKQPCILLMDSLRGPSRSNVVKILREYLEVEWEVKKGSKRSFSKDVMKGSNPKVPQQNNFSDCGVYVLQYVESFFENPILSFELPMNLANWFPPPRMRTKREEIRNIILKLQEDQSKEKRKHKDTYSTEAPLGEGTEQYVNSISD

target: Sentrin-specific protease 6 (Homo sapiens) (UniProt Q9GZR1); assay: SENP6 protease inhibitors, primary screen, biochemical, luminescence, uHTS (AID 2599); conditions: Recombinant SENP6 catalytic domain, aminoluciferin luminescence; at 10 µM; active compounds read high;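 also: plate controls were DMSO wells with enzyme for no effect and DMSO wells lacking enzyme for full effect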

Structure (SMILES)	inhibition
CCOC(=O)c1ccc(NP(C)(=O)Oc2ccc(Cl)cc2)cc1 (stereo unspecified)	inactive: 1.96%
CP(=O)(OC12CC3CC(CC(C3)C1)C2)OC12CC3CC(CC(C3)C1)C2	inactive: -0.961%
COc1ccc(OP(C)(=O)Nc2ccc(Br)cc2)cc1 (stereo unspecified)	inactive: -0.605%
CCN(CC)CC(O)COC(=O)C(O)(c1ccccc1)C1CCCCC1 (stereo unspecified)	inactive: -5.91%
O=C(OCCCN1CCCC1)C(O)(c1ccccc1)C1CCCCC1 (stereo unspecified)	inactive: -3.48%
COc1ccccc1OP(C)(=O)Nc1c(C)n(C)n(-c2ccccc2)c1=O (stereo unspecified)	inactive: -19.6%
CCc1ccc(OP(C)(=O)Nc2cccnc2)cc1 (stereo unspecified)	inactive: 15.9%
CP(=O)(Oc1ccccc1)N1CCOC1=O (stereo unspecified)	inactive: -27.4%
COc1ccccc1OP(C)(=O)Nc1ccccc1Br (stereo unspecified)	inactive: 9.63%
CC(C)(C)c1ccc(OP(C)(=O)O)cc1	inactive: -12.7%
CP(=O)(Nc1ccc(Cl)cc1)Oc1ccc(F)cc1 (stereo unspecified)	inactive: -20%
CN(C)C(=O)c1c([N+](=O)[O-])cc([N+](=O)[O-])cc1[N+](=O)[O-]	inactive: 32.2%
CP(=O)(Nc1ccc(SC(F)(F)F)cc1)Oc1ccc(F)cc1 (stereo unspecified)	inactive: -5.35%
CCOP(C)(=S)SCC(=O)NC(C)(CC)C(=O)O (stereo unspecified)	inactive: -0.983%
CP(=O)(Nc1ccc2c(c1)OCCO2)Oc1ccccc1 (stereo unspecified)	inactive: 3.67%
Cc1ccccc1NP(C)(=O)Nc1ccccc1C	inactive: -22.1%

Structure (SMILES)	inhibition
COc1ccc(OP(C)(=O)Nc2cccc(Br)c2)cc1 (stereo unspecified)	inactive: 10.6%
CN(C)CCOC(=O)C(O)(c1ccccc1)C1CCCCC1 (stereo unspecified)	inactive: 0.198%
COc1ccc(NP(C)(=O)Oc2ccccc2OC)cc1 (stereo unspecified)	inactive: -32.4%
O=[N+]([O-])c1cc([N+](=O)[O-])c(NCC2CCS(=O)(=O)C2)c([N+](=O)[O-])c1 (stereo unspecified)	inactive: 6.87%
CCOC(=O)c1ccc(NP(C)(=O)Oc2ccc(F)cc2)cc1 (stereo unspecified)	inactive: 0.685%
COc1ccc(OP(C)(=O)Nc2ccc(SC(F)(F)F)cc2)cc1 (stereo unspecified)	inactive: 4.29%
CCN(CC)CCCOC(=O)C(O)(c1ccccc1)C1CCCCC1 (stereo unspecified)	inactive: -0.866%
CP(=O)(Nc1ccccc1)Oc1ccc(F)cc1 (stereo unspecified)	inactive: -25.3%
O=[N+]([O-])c1cc([N+](=O)[O-])c(OC2CCCCC2O)c([N+](=O)[O-])c1 (stereo unspecified)	inactive: 11.7%
CCCCCOc1ccc(NP(C)(=O)Oc2ccc(Cl)cc2Cl)cc1 (stereo unspecified)	inactive: 8.75%
CP(=O)(Nc1ccccc1F)Oc1ccccc1 (stereo unspecified)	inactive: 0.25%
CC(C)c1ccc(OP(C)(=O)Nc2ccc(SC(F)(F)F)cc2)cc1 (stereo unspecified)	inactive: -23.7%
O=C(OC1CN2CCC1CC2)c1ccc([N+](=O)[O-])cc1 (stereo unspecified)	inactive: -4.33%
O=C(OCCN1CCN(CCOCc2ccccc2)CC1)C(O)(c1ccccc1)c1ccccc1	inactive: -0.247%
COc1ccc2c(c1O)-c1c(O)c(OC)cc3c1[C@H](C2)[N+](C)(C)CC3.O=[N+]([O-])c1cc([N+](=O)[O-])c([O-])c([N+](=O)[O-])c1[O-]	inactive: -1.34%
